# Ab-95 light chain CDR variants: yeast mating affinities

Data: MIT Lincoln Laboratory AlphaSeq set, Engelhart et al. 2022, doi:10.1038/s41597-022-01779-4, as distributed in FLAb.

Binding partner: SARS-CoV-2 spike HR2 peptide, sequence PDVDLGDISGINAS.

Parent scFv Ab-95: VH joined to VL by three GGGGS repeats. Changes lie in the light chain CDRs alone.
VH: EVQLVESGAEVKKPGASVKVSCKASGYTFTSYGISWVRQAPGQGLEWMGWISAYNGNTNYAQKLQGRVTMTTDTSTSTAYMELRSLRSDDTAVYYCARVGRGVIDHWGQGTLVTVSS
VL: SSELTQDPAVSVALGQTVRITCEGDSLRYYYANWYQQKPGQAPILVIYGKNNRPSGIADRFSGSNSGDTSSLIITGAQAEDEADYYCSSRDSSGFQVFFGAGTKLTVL

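The parent was found by panning a naive human phage display library on the peptide. The library (AAYL52) carries one to three amino acid substitutions per variant, with no insertions or deletions. The scFvs were displayed on barcoded MATa yeast, the peptide on MATalpha yeast. After mating in shaken culture at 30 °C for 16 h, diploids were selected and their barcode pairs sequenced. Each replicate has its own calibration line, from reference interactions of the BCL2 family. Mating was done three times.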

The parent's light chain CDRs are EGDSLRYYYAN, GKNNRPS, SSRDSSGFQVF; each variant's own CDRs replace them letter for letter. Every variant below is changed at N52 of the VL (sequential numbering). Affinities are written as log10 Kd with Kd in nM; a lower number is a better binder. Replicates are averaged; those with no signal do not enter the mean. "n.d." means that the variant was in the library but no mating with the target was seen in that replicate; the authors take this as a sign of poor binding, and no number exists. In this assay the parent's reference entry averaged 2.31; its copy inside this library read 2.25. Nonspecific signal, from three strains lacking the peptide, appeared in 28% of pairings of library AAYL52, centred on 3.91 (5% of these signals below 2.90); values are not corrected for it. The control count says in how many pairings with the empty strains this scFv gave a signal, with their mean in brackets.

CDR-L1	CDR-L2	CDR-L3	replicates, log10 nM	mean log10 Kd (nM)	signal with controls
EGHSLRYYYAN	GKLERPS	SSRDSSGFQVF	3.38 n.d. 3.44	3.41	2/9 (3.96)
EGDSLRYYLAN	GKNLRPS	SSRCSSGFQVF	2.74 3.31 3.04	3.03	3/9 (4.29)
EGDSLRYYYAN	GKNARPS	SWRDSSGFQAF	n.d. n.d. n.d.	n.d.	2/9 (4.21)
EDDSLRYYYAN	GKNVRPS	SSRDSSGFQVF	3.18 3.57 3.34	3.36	3/9 (3.94)
EGDSLFYYYAN	GKNIRPS	WSRDSSGFQVF	2.25 2.34 2.13	2.24	2/9 (4.02)
EGDSLRYYYAN	GKNDRPS	TSRDSSYFQVF	n.d. n.d. n.d.	n.d.	1/9 (4.42)
AGDSLRYYYAN	GKNCRPS	SSRDSKGFQVF	2.17 2.62 2.44	2.41	4/9 (4.30)
EGDSLTYYYAN	GKNSRPS	SSRDSSGFQVE	2.51 2.45 3.19	2.72	4/9 (4.06)
EGDSLRYYYAN	GWNMRPS	SIRDSSGFQVF	4.38 5.52 4.08	4.66	3/9 (4.15)
EGDSLRYYYAK	GKNRRPS	SSADSSGFQVF	2.95 3.11 2.59	2.88	2/9 (3.54)
EGDSLRYYYAN	GKNERKS	SSRDSSGFQVK	3.09 2.41 2.20	2.57	2/9 (4.10)
EGDSLRYYYAN	GGNVVPS	SSRDSSGFQVF	2.34 1.98 2.20	2.17	0/9
EGDSLRYYYAV	GKNVRPS	SSRDSSGPQVF	3.70 5.44 n.d.	4.57	5/9 (4.01)
EGDSLRYYYAH	LKNHRPS	SSRDSSGFQVF	3.50 n.d. n.d.	3.50	0/9
EDDKLRYYYAN	GKNKRPS	SSRDSSGFQVF	n.d. n.d. 3.74	3.74	3/9 (3.61)
EGDSLRYYYAN	GKNTRPS	SSRNSSGFEVF	3.75 n.d. n.d.	3.75	1/9 (4.13)
EGDSLRYYYAN	GKNRRPL	VSRDSSGFQVF	3.18 3.62 3.10	3.30	2/9 (3.84)
EGMSLRYYYAN	GKNIRPS	SSRDSSGFQVE	1.72 2.50 1.63	1.95	1/9 (3.51)
EGDSLRNYYAN	GKNIRPS	SSRDSLGFQVF	1.98 2.36 1.74	2.03	1/9 (5.15)
EGDSLRYYEAN	GHNWRPS	SSRDSSGFQVF	1.67 1.63 1.43	1.58	2/9 (5.26)
EGDSLRYYYAN	GKNARPS	SSRDSSGFQMC	2.35 2.30 2.39	2.35	4/9 (3.40)
EGDSWRYYYTN	GKNPRPS	SSRDSSGFQVF	n.d. n.d. n.d.	n.d.	3/9 (4.13)
EGDSLRYYYNN	GKNPRPY	SSRDSSGFQVF	n.d. n.d. n.d.	n.d.	3/9 (3.81)
EGDGLCYYYAN	GKNCRPS	SSRDSSGFQVF	n.d. n.d. n.d.	n.d.	4/9 (3.63)
EWDSLRYYYAN	MKNGRPS	SSRDSSGFQVF	n.d. n.d. n.d.	n.d.	2/9 (3.60)
EWDSLRYYYAN	GKNTRPS	SSRDSSPFQVF	3.98 4.16 n.d.	4.07	2/9 (3.41)
EGQSWRYYYAN	GKNYRPS	SSRDSSGFQVF	3.31 n.d. 4.35	3.83	3/9 (4.24)
EGDFLRYYYAN	GKELRPS	SSRDSSGFQVF	n.d. n.d. n.d.	n.d.	2/9 (3.70)
EGMSLRYGYAN	GKNERPS	SSRDSSGFQVF	0.61 0.53 -0.08	0.35	0/9
EGDSLRYYYAN	GKNWRPS	SSADSSRFQVF	3.77 3.49 3.55	3.60	3/9 (3.05)
EGDSLRKYYAN	FKNHRPS	SSRDSSGFQVF	4.31 4.97 4.03	4.43	5/9 (3.45)
EGDSLRYYYAN	GKNKRPS	SSRDSMGFQVF	3.75 3.99 3.58	3.77	3/9 (3.88)
EGDSLRYKYAN	GKNARPS	SSRDDSGFQVF	3.11 n.d. 3.00	3.05	0/9
EGDSLAYYYAN	GKNGQPS	SSRDSSGFQVF	2.27 2.31 3.35	2.64	6/9 (4.08)
ERDSLRYYYAN	GKNRRPS	SSIDSSGFQVF	n.d. n.d. n.d.	n.d.	3/9 (4.01)
EGDSLRYYYAN	GKNVRPS	SFRDSSGFLVF	4.11 4.70 4.10	4.30	0/9
EGFSLRYYYAN	GKNVRPS	SSRDSSGFQVF	2.91 2.53 3.00	2.82	1/9 (4.81)
EGDSLRYYQAN	GKNIRPS	SSRDSGGFQVF	1.25 1.17 0.48	0.96	2/9 (5.01)
EGDSLRYYYSN	GKNIRPS	SSRDSSGFQAF	2.49 2.75 3.38	2.88	1/9 (2.82)
EGDSLRYWYAN	GKNCRPS	SSRDSSGFQVG	2.94 3.02 3.08	3.01	6/9 (3.55)
EGDSLRYYYAN	GKNAPPS	SSRDSSGFMVF	4.14 n.d. n.d.	4.14	2/9 (3.49)
EGDSLRYYQAN	GKNGRPS	SSRDSSGFVVF	2.95 2.53 2.51	2.66	5/9 (3.95)
EGDSLRYYYAN	GKNGRPS	SSFDSSGFQVI	3.81 3.95 n.d.	3.88	3/9 (3.46)
EGDSQRYYYAN	GKNDTPS	SSRDSSGFQVF	4.02 3.64 n.d.	3.83	4/9 (3.69)
EGPSLRYYYAN	GKNERPS	SSRDSSGFAVF	2.59 2.10 2.40	2.36	1/9 (2.94)
EGDSLRYYYKN	GKNFRPS	SSRDSAGFQVF	3.25 3.83 3.25	3.44	1/9 (3.34)
EGDKLRYYYAN	GKNIRPS	SSRPSSGFQVF	3.06 3.43 n.d.	3.24	3/9 (3.90)
DGDSLRYYYSN	GKNSRPS	SSRDSSGFQVF	3.13 2.79 3.74	3.22	4/9 (3.45)

The 5 strongest on average among those seen in every replicate, once more:

CDR-L1	CDR-L2	CDR-L3	replicates, log10 nM	mean log10 Kd (nM)	signal with controls
EGMSLRYGYAN	GKNERPS	SSRDSSGFQVF	0.61 0.53 -0.08	0.35	0/9
EGDSLRYYQAN	GKNIRPS	SSRDSGGFQVF	1.25 1.17 0.48	0.96	2/9 (5.01)
EGDSLRYYEAN	GHNWRPS	SSRDSSGFQVF	1.67 1.63 1.43	1.58	2/9 (5.26)
EGMSLRYYYAN	GKNIRPS	SSRDSSGFQVE	1.72 2.50 1.63	1.95	1/9 (3.51)
EGDSLRNYYAN	GKNIRPS	SSRDSLGFQVF	1.98 2.36 1.74	2.03	1/9 (5.15)